Measured values reported in patent US7612081B2 (priority 2003, dated 2009).

Legend:
[1] = system: MKN-28 human gastric carcinoma; conditions: q4dx4
Procedure: Tumor fragments were inoculated on both flanks at day 0. Treatment started when tumors were just palpable. The molecule was given by oral route and intravenously according to the schedule q4d×4. During the treatment, animals were inspected every day for mortality. Physical appearance, behavior and general and local clinical signs of the mice will be observed daily. Any deviation from normality was recorded. All animals were weighed during the whole treatment period, in order to calculate the percent body weight loss due to the treatment.
Tumor volume inhibition % in treated over control tumors was evaluated 20 days after last treatment. To determine the antitumor activity of the drug, tumor diameters was measured biweekly with a Vernier caliper. The formula TV (mm^3)=[length (mm)×width (mm)^2]/2 was used, where the width and the length are the shortest and the longest diameters of each tumor, respectively.
When tumors reached a weight of about 2 g, the mice were sacrificed by cervical dislocation. LCK (log cell kill) as index of efficacy was calculated to evaluate the persistence of the effect of the molecule at the end of the treatment.

[2] = system: NCl—H460 non-microcytoma lung cancer cells; assay: Cytotoxic activity on NCl—H460 cells (sulforodamine B)

7-[(N′,N″,N′″-tert-butoxycarbonyl)-spermine-imino-methyl]-20S-camptothecin [ST2544]
Tox ([1]; iv, 1 mg/kg): 0/4 | BWL % (body weight loss) ([1]; iv, 2 mg/kg): 6% | Tox ([1]; iv, 2 mg/kg): 0/4 | BWL % (body weight loss) ([1]; iv, 4 mg/kg): 0% | Tox ([1]; iv, 4 mg/kg): 0/4 | BWL % (body weight loss) ([1]; p.o., 1 mg/kg): 5% | Tox ([1]; p.o., 1 mg/kg): 0/4 | BWL % (body weight loss) ([1]; p.o., 2 mg/kg): 1% | Tox ([1]; p.o., 2 mg/kg): 0/4 | BWL % (body weight loss) ([1]; p.o., 4 mg/kg): 7% | LCK (1000 mm^3) (log cell kill) ([1]; p.o., 4 mg/kg): 1 | Tox ([1]; p.o., 4 mg/kg): 0/4 | Cytotoxicity on the lung cancer line (in words) [2]: very potent cytotoxicity

Where two headings read alike, the source gives them in different places.
